Values of other authors, collected in patent US10821097B2, “DBH inhibitors for treating or preventing memory loss” (Brandeis University, priority 2015, dated 2020).

Sequences of proteins named here, by UniProt entry; tags and fusion partners are left off.
UniProt P41145, whole entry D138N: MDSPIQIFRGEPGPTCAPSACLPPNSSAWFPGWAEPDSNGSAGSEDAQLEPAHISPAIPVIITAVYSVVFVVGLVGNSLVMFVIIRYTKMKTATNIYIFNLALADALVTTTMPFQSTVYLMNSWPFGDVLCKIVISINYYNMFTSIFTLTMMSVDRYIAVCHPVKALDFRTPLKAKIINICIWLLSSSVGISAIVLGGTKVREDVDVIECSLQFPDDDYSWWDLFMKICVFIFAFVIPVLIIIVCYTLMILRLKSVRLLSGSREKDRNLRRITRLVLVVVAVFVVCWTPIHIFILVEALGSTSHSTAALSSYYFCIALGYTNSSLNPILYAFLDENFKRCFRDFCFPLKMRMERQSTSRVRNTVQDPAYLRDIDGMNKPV

Biological target: T1, KORD (Homo sapiens, UniProt P41145, D138N)
T1 construct: host or cells: transgene/viral expression in mouse neurons (Vardy et al., 2015); planned LC-specific KORD mice
Conditions: 10 mg/kg subcutaneously; cited from earlier work

Q: For `COC(=O)[C@@H]1C[C@H](O)C(=O)[C@H]2[C@@]1(C)CC[C@H]1C(=O)O[C@H](c3ccoc3)C[C@]21C` [SALB, salvinorin B], which “duration of effects after injection” value is on record?
A: The value was roughly 1 h.
